For 8 compounds, logP results are on record in the OPERA property sets (Mansouri et al. 2018).

The structures appear in SMILES notation.

For the data set the following is noted: experimental values compiled from the literature.
In general, logP refers to the decadic logarithm of the partition coefficient of the neutral form, usually between octanol and water. Lower therefore signals a more hydrophilic compound. Turning to `CCOP(=O)(CC)SCCSCC` (stereo not drawn), the logP was found to be 2.03. In the case of `CN(C)C(=O)Oc1cccnc1[N+](=O)[O-]` it was 0.54; in that of `CSC1C(Cl)C(Cl)C(Cl)C(Cl)C1Cl` (stereo not drawn), 3.85; in that of `CN(C)C(=O)Oc1cccnc1Br`, 1.14. In turn, `CN(C)C(=O)Oc1cccnc1Cl` returned a logP of 1.04.

`CCCOP(=O)(CC)Oc1ccc([N+](=O)[O-])cc1` (stereo not drawn) yielded a logP of 2.2. In the case of `CN(C)C(=O)Oc1cccnc1I` it was 1.26; in that of `COC1C(Cl)C(Cl)C(Cl)C(Cl)C1SC` (stereo not drawn), 3.3.
